An excerpt weighted towards active compounds, which were near 1.6% of everything screened.
UUG fidelity: alters start codon recognition fidelity in yeast | S. cerevisiae UUG-firefly luciferase reporter, luminescence/redox ratio | activity score, % at 18.7 µM | 350,000 compounds, 0.13% hits | AID 602363;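 active = replicate mean at a twofold rise or more, about +100% in these data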;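 note: firefly luciferase made from a UUG start codon reports start codon fidelity; reporter light over untreated wells divided by growth signal over untreated wells; some hits fall short of that in this replicate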
Vif inh: inhibitors of HIV Vif; HEK293T cells, Vif self-association by quenched fluorescence, imaging, 24 h; inhibition, % at 7.49 µM; hit rate 0.35% among 340,000; in the data active = inhibition above about 50%, passing the limit was not always enough; inconclusive = no clear call, values can overlap the other calls; inactive = below about 31%
CAL PDZ FP-1: blocks peptide binding to the human CAL PDZ domain; Q9HD26; purified CAL PDZ, TMR-peptide fluorescence polarization, 1 h; AID 602252; inhibition, % at 24.9 µM; hit rate 0.92% among 300,000;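 active = mean inhibition of at least 30% with at least half of replicates also reaching 30%; inconclusive = no clear call, values can overlap the other calls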;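 also: 0% = DMSO neutral control and 100% = excess unlabeled competitor peptide PRC23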
CAL PDZ FP-2: human CAL PDZ-peptide interaction inhibition. inhibition, % at 20 µM. purified CAL PDZ, TMR-peptide fluorescence polarization, 1 h. Q9HD26. hit rate 0.02% among 330,000;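 active = highest replicate inhibition of at least 40%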;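 also: plate controls were DMSO neutral control wells for no effect and unlabeled competitor peptide control wells for full effect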
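Test system: purified CerCALP PDZ construct; Compound dosing: one concentration, 20 µM compound; Also added: TMR-labelled reporter peptide T*-PRC34 bound in PDZ groove; Read-out: inhibition from polarization loss; Controls: unlabelled peptide and DMSO controls; Signal: FP readout, S and P plane fluorescence; Incubation: 1 h at RT.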
ARNT TACC3 PPI: ARNT/TACC3 interaction disruption. Q9Y6A5. AlphaScreen His-ARNT PAS-B/GST-TACC3 binding, luminescence; TACC3 fragment carries E629A point mutation. inhibition, % at 9.99 µM. hit rate 0.66% among 390,000. AID 623870;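 active = mean inhibition of replicates at least 50% and at least half of replicates each reaching 50%; inconclusive = half or more replicates reach 50% but mean below 50%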;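 also: 0% = complete ARNT plus TACC3 wells and 100% = ARNT alone without TACC3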
PglD DTNB: inhibitors of Campylobacter jejuni PglD acetyltransferase. hit rate 0.098% among 360,000. purified PglD enzyme, DTNB colorimetric CoA detection. inhibition, % at 12.5 µM; in the data active = inhibition above about 16%, passing the limit was not always enough; inconclusive = no clear call, values can overlap the other calls
* hit, by the source's call; i = inactive; ? = inconclusive; · = not tested or not shown.

1	O=C1S/C(=C\c2ccc(N3CCOCC3)o2)C(=O)N1Cc1c(F)cccc1Cl
2	O=C(CCN1CCCCC1)NCC[C@@H]1CC[C@@H](NC(=O)C2CCC2)[C@@H](CO)O1
3	COc1ccc2c(n1)Sc1nc3ccccc3nc1N2
4	COc1cc2ccccc2nn1
5	CCCC(O)C#Cc1cnc2c(c1)C(=O)N([C@H](C)CO)C[C@H](C)[C@H](CN(C)C(=O)Nc1c(C)noc1C)O2 (stereo partly drawn)
Assay by compound	1	2	3	4	5
UUG fidelity	2.7	-4.0	18.4	·	12.0
Vif inh	7.7	·	i	0.7	·
CAL PDZ FP-1	-4.4	·	-1.2	-7.7	·
CAL PDZ FP-2	-2.2	·	-2.0	-0.6	·
ARNT TACC3 PPI	-5.0	-5.0	8.9*	-2.8	0.0
PglD DTNB	2.2	-1.6	3.4	·	2.4

By substructure, the entries above with a carbonyl joined to an NH by a bond outside any ring.
2	O=C(CCN1CCCCC1)NCC[C@@H]1CC[C@@H](NC(=O)C2CCC2)[C@@H](CO)O1
5	CCCC(O)C#Cc1cnc2c(c1)C(=O)N([C@H](C)CO)C[C@H](C)[C@H](CN(C)C(=O)Nc1c(C)noc1C)O2 (stereo partly drawn)
Assay by compound	2	5
UUG fidelity	-4.0	12.0
Vif inh	·	·
CAL PDZ FP-1	·	·
CAL PDZ FP-2	·	·
ARNT TACC3 PPI	-5.0	0.0
PglD DTNB	-1.6	2.4

Just Vif inh, for 2 of the compounds above:
| nr | canonical_smiles | Vif inh |
| --- | --- | --- |
| 3 | COc1ccc2c(n1)Sc1nc3ccccc3nc1N2 | i |
| 1 | O=C1S/C(=C\c2ccc(N3CCOCC3)o2)C(=O)N1Cc1c(F)cccc1Cl | 7.7 |

The results go on.
6	COC(=O)c1cc2ccccc2c([N+](=O)[O-])c1O
7	O=C(Cc1ccccn1)NCC[C@H]1CC[C@H](NS(=O)(=O)c2ccc(F)cc2)[C@@H](CO)O1
8	CC1=Nc2ccc3ccccc3c2C1(C)C
9	Cc1ccc(-c2cnc3c(c2)C(=O)N([C@@H](C)CO)C[C@H](C)[C@@H](CN(C)C(=O)c2ccc(F)cc2)O3)cc1
10	CC(C)NC(=O)Nc1cccc2c1O[C@H](CN(C)Cc1ccc(C(=O)O)cc1)[C@H](C)CN([C@@H](C)CO)C2=O
Assay by compound	6	7	8	9	10
UUG fidelity	-13.4	-1.1	·	-2.5	-2.5
Vif inh	4.0	·	53.0*	·	·
CAL PDZ FP-1	107.7*	·	5.4	·	·
CAL PDZ FP-2	-0.3	·	0.4	·	·
ARNT TACC3 PPI	-1.9	19.5	-2.1	-3.4	-2.7
PglD DTNB	-0.4	1.4	·	-1.6	4.6

11	COc1ccc(CCn2c(=S)[nH]c3ccc(N4CCOCC4)cc3c2=O)cc1OC
12	O=c1c2cc(N3CCOCC3)ccc2[nH]c(=S)n1CCc1ccccc1
13	COc1ccccc1-c1ccc2n(c1=O)C[C@@H]1[C@@H](CO)[C@H](C(=O)O)N(C(=O)c3cccnc3)[C@H]21
14	CCc1ccc(-c2nc(CS(=O)CC(=O)NCc3ccccc3)c(C)o2)cc1 (stereo not drawn)
15	Cc1oc(-c2ccc(Cl)cc2)nc1CS(=O)CC(=O)NCc1ccccc1 (stereo not drawn)
Assay by compound	11	12	13	14	15
UUG fidelity	-15.0	·	·	-0.6	-19.3
Vif inh	-4.6	-7.6	·	3.5	1.9
CAL PDZ FP-1	128.4*	-1.1	·	70.6*	2.7
CAL PDZ FP-2	20.4	-1.5	·	-1.1	-2.3
ARNT TACC3 PPI	0.3	3.1	-0.2	-0.1	·
PglD DTNB	5.7	·	1.2	1.1	-4.8

16	O=C(C[C@H]1C=C[C@@H](NC(=O)CN2CCOCC2)[C@H](CO)O1)NCCc1ccccc1
17	Cc1cc(=O)nc2c3ccccc3n(C(C)C(=O)Nc3c(F)c(F)c(F)c(F)c3F)n12 (stereo not drawn)
18	Cc1cc(=O)nc2c3ccccc3n(C(C)C(=O)Nc3cc(F)ccc3F)n12 (stereo not drawn)
19	OC(c1ccccc1)C(NCCNCc1ccccc1)c1ccccc1 (stereo not drawn)
20	O=S(=O)(c1cccc(-c2n[nH]c(=S)n2-c2ccccc2Cl)c1)N1CCOCC1
Assay by compound	16	17	18	19	20
UUG fidelity	-3.0	-7.4	·	-1.9	-13.3
Vif inh	·	-4.3	1.6	?	10.7
CAL PDZ FP-1	·	81.7*	4.1	164.9*	6.9
CAL PDZ FP-2	·	5.7	-0.4	-0.4	-1.2
ARNT TACC3 PPI	·	-5.9	20.3	3.4	2.7
PglD DTNB	-1.8	-1.0	·	1.7	-2.7

21	O=S(=O)(c1cccc(-c2n[nH]c(=S)o2)c1)N1CCOCC1
22	N#C/C(=C\c1cccs1)c1nc2ccccc2[nH]1
23	N#C/C(=C/c1ccc(O)c(O)c1)c1nc2ccccc2[nH]1
24	CCOC(=O)C1CCN(c2c(NCCN(CC)c3ccccc3)c(=O)c2=O)CC1
25	CCOC(=O)C1CCCN(c2c(NCCN(CC)c3ccccc3)c(=O)c2=O)C1 (stereo not drawn)
Assay by compound	21	22	23	24	25
UUG fidelity	-15.1	-10.0	1.2	1.0	-25.3
Vif inh	-1.7	-0.2	2.8	7.9	2.0
CAL PDZ FP-1	97.6*	18.1	114.5*	54.2*	·
CAL PDZ FP-2	-0.8	-1.0	2.9	0.0	-0.9
ARNT TACC3 PPI	-3.6	0.0	18.8	4.1	·
PglD DTNB	6.4	0.4	-3.1	2.7	-0.8

26	Cc1cc(-c2nnc(SCC(=O)Nc3ccc(Cl)cn3)n2N)n[nH]1
27	C[C@@H]1CN([C@H](C)CO)C(=O)c2cc(NS(=O)(=O)c3ccc(Cl)cc3)ccc2O[C@@H]1CN(C)S(=O)(=O)c1ccccc1
28	CO[C@@H]1CN(C)C(=O)c2ccc(NC(=O)c3ccccc3F)cc2OC[C@@H](C)NC[C@@H]1C
29	Cc1ccc(S(=O)(=O)N[C@H]2C=C[C@@H](CC(=O)N3CCN(c4ccccc4)CC3)O[C@H]2CO)cc1
30	O=C(O)CC(CNC(=O)C1CCCN1C(=O)OCc1ccccc1)c1ccccc1 (stereo not drawn)
Assay by compound	26	27	28	29	30
UUG fidelity	-11.8	10.5	-10.1	-8.1	-11.8
Vif inh	55.5*	·	·	·	-6.9
CAL PDZ FP-1	4.2	·	·	·	74.5*
CAL PDZ FP-2	-0.5	·	·	·	·
ARNT TACC3 PPI	-2.3	-4.6	-3.4	·	-5.0
PglD DTNB	4.2	4.2	0.7	2.6	1.7

31	C[C@@H]1CN([C@H](C)CO)C(=O)Cc2cc(NS(C)(=O)=O)ccc2O[C@H]1CN(C)S(=O)(=O)c1cccs1
32	CCCc1nc2nc(C)c(NS(=O)(=O)c3ccc(C(C)(C)C)cc3)c(=O)n2[nH]1
33	Cc1ccc(S(=O)(=O)Nc2c(C)nc3nc(C)[nH]n3c2=O)c(C)c1
34	C[C@H](CO)N1C[C@H](C)[C@H](CN(C)Cc2ccc(Cl)c(Cl)c2)Oc2ccc(NC(=O)Nc3ccc4c(c3)OCO4)cc2C1=O
35	C=CCN1C(=O)[C@@]2(O[C@@H](CCn3cc([C@H](O)c4ccccc4)nn3)[C@H]([Si](C)(C)c3ccc(OC)cc3)[C@H]2C)c2cc(N3C(=O)c4cccc5cccc3c45)ccc21
Assay by compound	31	32	33	34	35
UUG fidelity	-3.6	6.7	-9.8	-1.8	-19.9
Vif inh	·	17.0	63.8*	·	·
CAL PDZ FP-1	·	-5.2	-2.3	·	·
CAL PDZ FP-2	·	-3.3	-2.2	·	·
ARNT TACC3 PPI	-12.2	-3.0	-3.4	14.4	-4.1
PglD DTNB	0.3	5.7	-1.3	12.0	9.6

36	COc1ccc(C(=O)CSc2nnc(CNC(=O)c3ccccc3)o2)cc1
37	CCNC(=O)COC(=O)c1ccc(-n2nc(C)cc2C)cc1
38	COc1cc(OC)cc(C(=O)NCC(=O)OCC(=O)NCc2ccco2)c1
39	Cc1cc(C)n(-c2ccc(C(=O)OCC(=O)NCc3ccco3)cc2)n1
40	COc1cc(C(=O)NCc2nnc(SCC(=O)Nc3cc(C)cc(C)c3)o2)cc(OC)c1OC
Assay by compound	36	37	38	39	40
UUG fidelity	-2.0	-5.6	·	-13.0	-11.5
Vif inh	·	-10.3	8.9	13.6	22.8
CAL PDZ FP-1	52.2*	3.4	-8.7	39.6*	-0.6
CAL PDZ FP-2	-0.5	-0.6	-0.2	·	-2.0
ARNT TACC3 PPI	-8.1	-0.7	-1.6	7.2	-2.8
PglD DTNB	-4.3	·	·	-1.4	-4.6

41	O=C(CSc1nnc(CNC(=O)c2ccccc2)o1)c1ccc(Cl)cc1
42	COc1cc(C(=O)NCc2nnc(SCC(=O)Nc3c(C)cc(C)cc3C)o2)cc(OC)c1OC
43	COc1ccc(C(=O)NCC(=O)OCC(=O)NCc2ccco2)cc1
44	Cc1ccc(S(=O)(=O)Nc2ccc3c(c2)C(=O)N([C@@H](C)CO)C[C@H](C)[C@@H](CN(C)Cc2ccc4c(c2)OCO4)OCCCC[C@H](C)O3)cc1
Assay by compound	41	42	43	44
UUG fidelity	-1.7	-15.9	-1.1	37.1
Vif inh	·	-2.8	-3.0	·
CAL PDZ FP-1	-7.4	60.1*	43.4*	·
CAL PDZ FP-2	-1.1	-0.7	0.2	·
ARNT TACC3 PPI	-6.8	2.1	-4.6	3.9
PglD DTNB	5.6	2.3	-3.7	0.2

Compound activity (PubChem BioAssay)
